Biological target: C-Raf FL (full-length C-Raf protein, Y340E and Y341E activating mutations) (Homo sapiens (Human), UniProt P04049, Y340E/Y341E)
Assay type: biochemical
Details: AlphaScreen, 60 min pre-incubation, 1 hour reaction; read-out: c-Raf FL IC-50

Sequences of proteins named here, by UniProt entry; tags and fusion partners are left off.
UniProt P04049, whole entry Y340E/Y341E: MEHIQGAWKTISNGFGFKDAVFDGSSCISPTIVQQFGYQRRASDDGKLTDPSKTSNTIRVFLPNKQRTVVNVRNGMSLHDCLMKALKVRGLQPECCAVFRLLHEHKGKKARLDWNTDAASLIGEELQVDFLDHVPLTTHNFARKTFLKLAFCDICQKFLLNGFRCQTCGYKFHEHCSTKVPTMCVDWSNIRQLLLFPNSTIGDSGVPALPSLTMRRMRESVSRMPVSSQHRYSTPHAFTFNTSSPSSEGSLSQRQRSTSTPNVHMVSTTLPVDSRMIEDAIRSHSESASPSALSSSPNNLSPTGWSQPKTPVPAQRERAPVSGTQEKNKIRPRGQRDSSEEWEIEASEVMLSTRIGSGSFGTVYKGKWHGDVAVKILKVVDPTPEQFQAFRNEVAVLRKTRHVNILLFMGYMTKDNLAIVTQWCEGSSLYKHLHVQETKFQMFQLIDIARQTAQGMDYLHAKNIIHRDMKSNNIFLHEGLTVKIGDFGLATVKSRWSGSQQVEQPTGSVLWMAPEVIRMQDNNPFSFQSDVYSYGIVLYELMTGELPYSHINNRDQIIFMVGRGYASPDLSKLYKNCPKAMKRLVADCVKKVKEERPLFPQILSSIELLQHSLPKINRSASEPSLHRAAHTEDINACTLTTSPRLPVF

Row | SMILES | IC50
1 | Cc1ccc(NC(=O)c2ccnc(C(C)(F)F)c2)cc1-c1cc(N2CCOCC2)c(OCCO)nn1 [Example 587, 2-(1,1-difluoroethyl)-N-(3-(6-(2-hydroxyethoxy)-5-morpholinopyridazin-3-yl)-4-methylphenyl)isonicotinamide] | 0.3 nM
2 | Cc1ccc(NC(=O)c2ccnc(C(C)(C)F)c2)cc1-c1cc(N2CCOCC2)c(OCCO)nn1 [Example 588, 2-(2-fluoropropan-2-yl)-N-(3-(6-(2-hydroxyethoxy)-5-morpholinopyridazin-3-yl)-4-methylphenyl)isonicotinamide] | 0.7 nM
3 | CCC(F)(F)c1cc(C(=O)Nc2ccc(C)c(-c3cc(N4CCOCC4)c(OCCO)nn3)c2)ccn1 [Example 589, 2-(1,1-difluoropropyl)-N-(3-(6-(2-hydroxyethoxy)-5-morpholinopyridazin-3-yl)-4-methylphenyl)isonicotinamide] | 0.4 nM
4 | Cc1ccc(NC(=O)c2ccnc(C(C)(C)C#N)c2)cc1-c1cc(N2CCOCC2)c(OCCO)nn1 [Example 591, 2-(2-cyanopropan-2-yl)-N-(3-(6-(2-hydroxyethoxy)-5-morpholinopyridazin-3-yl)-4-methylphenyl)isonicotinamide] | 0.6 nM
5 | Cc1ccc(NC(=O)c2ccnc(C(F)F)c2)cc1-c1cc(N2CCOCC2)c(OC(C)C)nn1 [Example 593, 2-(difluoromethyl)-N-(3-(6-isopropoxy-5-morpholinopyridazin-3-yl)-4-methylphenyl)isonicotinamide] | 0.2 nM
6 | Cc1ccc(NC(=O)c2cc(C(F)(F)F)ccn2)cc1-c1cc(N2CCOCC2)c(OC(C)C)nn1 [Example 594, N-(3-(6-isopropoxy-5-morpholinopyridazin-3-yl)-4-methylphenyl)-4-(trifluoromethyl)picolinamide] | 0.2 nM
7 | Cc1ccc(NC(=O)c2ccnc(C(C)(C)F)c2)cc1-c1cc(N2CCOCC2)c(OC(C)C)nn1 [Example 595, 2-(2-fluoropropan-2-yl)-N-(3-(6-isopropoxy-5-morpholinopyridazin-3-yl)-4-methylphenyl)isonicotinamide] | 0.2 nM
8 | Cc1ccc(NC(=O)c2ccnc(C(C)(C)C#N)c2)cc1-c1cc(N2CCOCC2)c(OC(C)C)nn1 [Example 596, 2-(2-cyanopropan-2-yl)-N-(3-(6-isopropoxy-5-morpholinopyridazin-3-yl)-4-methylphenyl)isonicotinamide] | 0.3 nM
9 | COCCOc1nnc(-c2cc(NC(=O)c3ccnc(C(F)F)c3)ccc2C)cc1N1CCOCC1 [Example 598, 2-(difluoromethyl)-N-(3-(6-(2-methoxyethoxy)-5-morpholinopyridazin-3-yl)-4-methylphenyl)isonicotinamide] | 0.5 nM
10 | COCCOc1nnc(-c2cc(NC(=O)c3cc(C(F)(F)F)ccn3)ccc2C)cc1N1CCOCC1 [Example 599, N-(3-(6-(2-methoxyethoxy)-5-morpholinopyridazin-3-yl)-4-methylphenyl)-4-(trifluoromethyl)picolinamide] | 0.2 nM
11 | COCCOc1nnc(-c2cc(NC(=O)c3ccnc(C(C)(C)F)c3)ccc2C)cc1N1CCOCC1 [Example 600, 2-(2-fluoropropan-2-yl)-N-(3-(6-(2-methoxyethoxy)-5-morpholinopyridazin-3-yl)-4-methylphenyl)isonicotinamide] | 0.3 nM
12 | COCCOc1nnc(-c2cc(NC(=O)c3ccnc(C(C)(C)C#N)c3)ccc2C)cc1N1CCOCC1 [Example 601, 2-(2-cyanopropan-2-yl)-N-(3-(6-(2-methoxyethoxy)-5-morpholinopyridazin-3-yl)-4-methylphenyl)isonicotinamide] | 0.3 nM
13 | COc1nnc(-c2cc(NC(=O)c3ccnc(C(C)(F)F)c3)cnc2C)cc1N1CCOCC1 [Example 603, 2-(1,1-difluoroethyl)-N-(5-(6-methoxy-5-morpholinopyridazin-3-yl)-6-methylpyridin-3-yl)isonicotinamide] | 0.9 nM
14 | COc1nnc(-c2cc(NC(=O)c3cccc(C(F)F)c3)cnc2C)cc1N1CCOCC1 [Example 604, 3-(difluoromethyl)-N-(5-(6-methoxy-5-morpholinopyridazin-3-yl)-6-methylpyridin-3-yl)benzamide] | 0.6 nM
15 | COc1nnc(-c2cc(NC(=O)c3ccnc(C(F)(F)F)c3)cnc2C)cc1N1CCOCC1 [Example 605, N-(5-(6-methoxy-5-morpholinopyridazin-3-yl)-6-methylpyridin-3-yl)-2-(trifluoromethyl)isonicotinamide] | 1 nM
16 | COc1nnc(-c2cc(NC(=O)c3ccnc(C4CC4)c3)cnc2C)cc1N1CCOCC1 [Example 606, 2-cyclopropyl-N-(5-(6-methoxy-5-morpholinopyridazin-3-yl)-6-methylpyridin-3-yl)isonicotinamide] | 1.3 nM
17 | CCC(F)(F)c1cc(C(=O)Nc2cnc(C)c(-c3cc(N4CCOCC4)c(OC)nn3)c2)ccn1 [Example 607, 2-(1,1-difluoropropyl)-N-(5-(6-methoxy-5-morpholinopyridazin-3-yl)-6-methylpyridin-3-yl)isonicotinamide] | 1.5 nM
18 | CCOc1nnc(-c2cc(NC(=O)c3cccc(C(F)(F)F)c3)cnc2C)cc1N1CCOCC1 [Example 609, N-(5-(6-ethoxy-5-morpholinopyridazin-3-yl)-6-methylpyridin-3-yl)-3-(trifluoromethyl)benzamide] | 0.3 nM
19 | CCOc1nnc(-c2cc(NC(=O)c3ccnc(C(C)(C)F)c3)cnc2C)cc1N1CCOCC1 [Example 610, N-(5-(6-ethoxy-5-morpholinopyridazin-3-yl)-6-methylpyridin-3-yl)-2-(2-fluoropropan-2-yl)isonicotinamide] | 1.5 nM
20 | CCOc1nnc(-c2cc(NC(=O)c3cc(C(F)(F)F)ccn3)cnc2C)cc1N1CCOCC1 [Example 611, N-(5-(6-ethoxy-5-morpholinopyridazin-3-yl)-6-methylpyridin-3-yl)-4-(trifluoromethyl)picolinamide] | 0.5 nM
21 | CCOc1nnc(-c2cc(NC(=O)c3ccnc(C4CC4)c3)cnc2C)cc1N1CCOCC1 [Example 612, 2-cyclopropyl-N-(5-(6-ethoxy-5-morpholinopyridazin-3-yl)-6-methylpyridin-3-yl)isonicotinamide] | 0.7 nM
22 | CCOc1nnc(-c2cc(NC(=O)c3ccnc(C(C)(C)C#N)c3)cnc2C)cc1N1CCOCC1 [Example 613, 2-(2-cyanopropan-2-yl)-N-(5-(6-ethoxy-5-morpholinopyridazin-3-yl)-6-methylpyridin-3-yl)isonicotinamide] | 3.6 nM
23 | CCOc1nnc(-c2cc(NC(=O)c3cnnc(C(F)(F)F)c3)cnc2C)cc1N1CCOCC1 [Example 614, N-(5-(6-ethoxy-5-morpholinopyridazin-3-yl)-6-methylpyridin-3-yl)-6-(trifluoromethyl)pyridazine-4-carboxamide] | 2.9 nM
24 | CCOc1nnc(-c2cc(NC(=O)c3ccnc(S(C)(=O)=O)c3)cnc2C)cc1N1CCOCC1 [Example 615, N-(5-(6-ethoxy-5-morpholinopyridazin-3-yl)-6-methylpyridin-3-yl)-2-(methylsulfonyl)isonicotinamide] | 8.6 nM
25 | CCOc1nnc(-c2cc(NC(=O)c3ccnc(C(F)(F)CC)c3)cnc2C)cc1N1CCOCC1 [Example 617, 2-(1,1-difluoropropyl)-N-(5-(6-ethoxy-5-morpholinopyridazin-3-yl)-6-methylpyridin-3-yl)isonicotinamide] | 1 nM

Source: US9694016B2 (Novartis AG, priority 2013, dated 2017)
